Chains of the proteins cited; added tags and fusions are not shown.
UniProt Q06187, whole entry: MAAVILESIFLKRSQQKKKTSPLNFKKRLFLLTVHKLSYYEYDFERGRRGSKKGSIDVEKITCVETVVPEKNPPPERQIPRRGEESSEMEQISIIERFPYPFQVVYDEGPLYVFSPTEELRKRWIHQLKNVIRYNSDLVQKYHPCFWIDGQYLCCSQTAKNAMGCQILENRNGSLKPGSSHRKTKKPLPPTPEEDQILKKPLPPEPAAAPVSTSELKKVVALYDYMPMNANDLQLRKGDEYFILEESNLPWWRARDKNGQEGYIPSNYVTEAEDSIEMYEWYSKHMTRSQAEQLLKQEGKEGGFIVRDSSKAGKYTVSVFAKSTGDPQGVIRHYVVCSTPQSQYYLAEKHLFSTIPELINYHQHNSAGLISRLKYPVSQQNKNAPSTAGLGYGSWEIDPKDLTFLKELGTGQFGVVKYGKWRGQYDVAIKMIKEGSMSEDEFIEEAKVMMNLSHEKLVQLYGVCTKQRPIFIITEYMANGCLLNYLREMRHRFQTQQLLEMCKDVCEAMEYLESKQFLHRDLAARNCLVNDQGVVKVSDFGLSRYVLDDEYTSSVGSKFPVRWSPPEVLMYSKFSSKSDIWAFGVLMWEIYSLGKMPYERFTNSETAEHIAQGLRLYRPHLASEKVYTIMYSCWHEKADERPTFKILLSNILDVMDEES

According to patent publication US20230167118A1, “DEGRADATION OF BRUTON'S TYROSINE KINASE (BTK) BY CONJUGATION OF BTK INIDBITORS WITH E3 LIGASE LIGAND AND METHODS OF USE” (BEIGENE, LTD., priority 2020, published 2023):

How the values were obtained:
BTK = BTK (Homo sapiens, UniProt Q06187); assay: Cell Degradation: BTK degradation in TMD-8 cells, HTRF assay; details: 6 h treatment, IC50 (DC50) of BTK degradation
HEK-293 cells = assay: HEK-293 Cytotoxicity Assay (CellTiter-Glo); details: 72 h incubation, CellTiter-Glo luminescence
Experimental: HEK-293 Cytotoxicity Assay
HEK-293 cells are treated with compounds diluted in 0.2% DMSO, dilution is done according to the following protocol: (1) make 500× stock solution in DMSO from 5 mM by 4-fold dilution, total 8 doses were included; (2) make 2× solution in cell culture medium by transferring 0.5 ul 500× stock solution into 125 ul medium; (3) 50 ul of 2× solution is added to cells and incubate for 72 h.
Add 25 μl of the CellTiter-Glo®Reagent [I (Promega)—Cat No. G7572] to each well in the 96-well plate. Mix contents for 2 minutes on an orbital shaker to induce cell lysis. Allow the plate to incubate at room temperature for 10 minutes to stabilize luminescent signal. Record luminescence on BMG PheraStar with luminescence protocol.
The IC50 value of a compound can be obtained by fitting the following equation. Y=Bottom+(TOP−Bottom)/(1+((IC50/X)^hillslope)) Wherein, X and Y are known values, and IC50, Hillslope, Top and Bottom are the parameters obtained by fitting with software. Y is the inhibition percentage (calculated from the equation), X is the concentration of the compound; IC50 is the concentration of the compound when the 50% inhibition is reached. The smaller the IC50 value is, the stronger the inhibitory ability of the compound is. […]

Compound `C[C@@H](NC(=O)c1nc(C(C)(C)C)no1)C1CCN(c2ncnc3[nH]c(-c4ccc(N5CCN(CC6CCN(c7ccc(N8CCC(=O)NC8=O)cc7)CC6)CC5)nc4)cc23)CC1` has a DC50 (BTK) of 0.4 nM and an IC50 (HEK-293 cells) greater than 10000 nM.
